By UniProt entry, the sequences of proteins in these tests, tags left out.
UniProt P15056, whole entry: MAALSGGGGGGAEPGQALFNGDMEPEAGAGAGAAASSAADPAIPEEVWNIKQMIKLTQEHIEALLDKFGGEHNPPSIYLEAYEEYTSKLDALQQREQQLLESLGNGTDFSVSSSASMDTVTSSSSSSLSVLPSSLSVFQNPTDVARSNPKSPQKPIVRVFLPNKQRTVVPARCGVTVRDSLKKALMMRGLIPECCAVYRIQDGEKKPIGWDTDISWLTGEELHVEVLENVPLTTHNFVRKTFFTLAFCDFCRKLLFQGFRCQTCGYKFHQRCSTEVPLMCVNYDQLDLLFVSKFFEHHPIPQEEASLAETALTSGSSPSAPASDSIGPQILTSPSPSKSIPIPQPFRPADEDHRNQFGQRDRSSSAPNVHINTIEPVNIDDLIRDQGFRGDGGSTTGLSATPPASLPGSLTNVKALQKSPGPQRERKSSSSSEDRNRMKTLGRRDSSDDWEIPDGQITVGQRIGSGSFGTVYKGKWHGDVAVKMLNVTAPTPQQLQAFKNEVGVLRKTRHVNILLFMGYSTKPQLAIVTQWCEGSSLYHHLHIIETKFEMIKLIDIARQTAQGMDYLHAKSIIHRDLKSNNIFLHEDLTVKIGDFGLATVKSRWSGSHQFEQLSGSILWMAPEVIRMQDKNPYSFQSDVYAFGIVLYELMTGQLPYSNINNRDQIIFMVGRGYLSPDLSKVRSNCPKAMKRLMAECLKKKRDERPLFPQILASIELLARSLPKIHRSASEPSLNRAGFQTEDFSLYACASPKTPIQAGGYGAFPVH

According to patent US20100029657A1, “Bridged, Bicyclic Heterocyclic or Spiro Bicyclic Heterocyclic Derivatives of Pyrazolo[1, 5-A]Pyrimidines, Methods for Preparation and Uses Thereof” (Wyeth, priority 2008, published 2010):

Molecular target: Flag/GST-tagged recombinant human B-Raf (Homo sapiens, UniProt P15056)
Assay: B-Raf kinase assay (phosphorylation of GST-MEK1, phospho-MEK1 antibody/Europium detection)
Type: biochemical
Conditions: read-out: Mean IC50; B-Raf IC50 Data for compounds of Formula A

`COc1cccc(-c2c(-c3ccncc3)nn3c(-c4ccnc(N[C@H]5CN6CCC5CC6)c4)ccnc23)c1` gave an IC50 of over 1 µM.
